High-throughput results deposited in PubChem BioAssay by Broad Institute.
A selection: hits, their analogues and other compounds. The true share with any hit is near 2.8%.
Wnt act = Wnt/beta-catenin pathway activation; Wnt/beta-catenin reporter cell assay, activator, plate reader; hit rate 1.2% among 300,000; activation, % at 9.35 µM; in the data active = activation above about 30%, passing the limit was not always enough; inconclusive = no clear call, values can overlap the other calls;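 also: 0% = neutral control wells and 100% = positive control wells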
miR-122 sensor = miR-122 inhibition in Huh7 cells | Huh7 miR-122 Renilla luciferase sensor, 48 h; neutral wells = 0, positive control = 100 | activation (reporter increase), % at 12.5 µM | hit rate 0.3% among 340,000 | AID 602342;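 active = mean replicate activation score at least 90 and every replicate individually at or above 90; inconclusive = only one of the two criteria met; inactive = neither criterion met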;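 also: higher luciferase means less miR-122 activity so hits act as miR-122 inhibitors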
MITF act = activators of MITF-driven TRPM1 promoter activity in SK-MEL-5 cells; SK-MEL-5 TRPM1-promoter luciferase, 24 h; % of positive control, neutral wells = 0; activation, % at 12.5 µM; AID 588334; hit rate 0.75% among 300,000;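 active = mean activation of at least 80% with every replicate also reaching 80%; inconclusive = mean reaches 80% but some replicate falls short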;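 also: 0% = neutral control wells and 100% = parthenolide positive control wells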
PglD DTNB = inhibitors of Campylobacter jejuni PglD acetyltransferase; hit rate 0.098% among 360,000; inhibition, % at 12.5 µM; purified PglD enzyme, DTNB colorimetric CoA detection; AID 602405; in the data active = inhibition above about 16%, passing the limit was not always enough; inconclusive = no clear call, values can overlap the other calls
Yeast UUG start = alters start codon recognition fidelity in yeast | S. cerevisiae UUG-firefly luciferase reporter, luminescence/redox ratio | activity score, % at 18.7 µM | 350,000 compounds, 0.13% hits | AID 602363;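 active = replicate mean at a twofold rise or more, about +100% in these data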;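 note: firefly luciferase made from a UUG start codon reports start codon fidelity; reporter light over untreated wells divided by growth signal over untreated wells; some hits fall short of that in this replicate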
esBAF inh = blocks esBAF chromatin remodeling in mouse ES cells. hit rate 2% among 350,000. reporter increase, % at 12.5 µM. Bmi1-luciferase knock-in reporter, 24 h; 100% = twice the neutral-well signal; in the data active = activation above about 40%; inconclusive = no clear call, values can overlap the other calls;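 also: 0% = median of the plate's neutral control wells and 100% = double that signal; a rise in the Bmi1 reporter signal indicates esBAF inhibition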
* hit, by the source's call; ? = inconclusive; . = no result given; [ ] = another dose, or the depositor's remark.

Values run as follows: Wnt act, miR-122 sensor, MITF act, PglD DTNB, Yeast UUG start, esBAF inh
(1) CCC(=O)Nc1ccc2c(c1)C(=O)N(C)C[C@@H](OC)[C@@H](C)CN(C(=O)CN(C)C)[C@H](C)CO2
    ., -9[16.7 µM], ., ., ., -2
(2) CCCNC(=O)Nc1ccc2c(c1)C(=O)N(C)[C@@H]1CC[C@@H](CC(=O)NCC3CCCCC3)O[C@H]1CO2
    ., -33[16.7 µM], ., 0, 7, 5
(3) Cc1ccc(NC(=O)c2cnccn2)c(Br)c1
    13, 2, 71, 3, -3, 52*
(4) Cc1ccc(NC(=O)c2cnccn2)nc1
    0, 3, 66, 4, -11, 28
(5) NC(=O)c1nnn(-c2ccccc2)c1N
    0, -1, 3, 1, -11, 3
(6) CCCCNC(=O)c1nnn(-c2ccccc2)c1N
    ., -7, 30, -2, -6, 43*
(7) CCCc1nc2c3ccccc3ccn2c1Cc1cccc(F)c1
    14, -2, ., 1, 40, 46*
(8) Clc1cccc(Cc2c(-c3ccco3)nc3c4ccccc4ccn23)c1
    -25, ., ., ., ., .
(9) Fc1ccc(-c2nc3c4ccccc4ccn3c2Cc2cccc(F)c2)cc1
    1, ., ., ., ., .
(10) COc1ccc(-c2nc3c4ccccc4ccn3c2Cc2ccccc2)cc1OC
    6, 10, ., 1, -6, 45*
(11) Fc1cccc(Cc2c(-c3ccco3)nc3c4ccccc4ccn23)c1
    16, -1, ., 4, -14, 72*
(12) C[C@@H]1CN([C@H](C)CO)C(=O)c2cc(C#Cc3ccccc3)cnc2O[C@H]1CN(C)C(=O)C1CC1
    ., -1[16.7 µM], ., 1, 5, 3
(13) O=C(Nc1ccc2c(c1)OCO2)N[C@H]1C=C[C@@H](CC(=O)N2CCN(c3ccccc3)CC2)O[C@H]1CO
    ., -3[16.7 µM], ., 3, 2, 8
(14) O=C(NC(=S)Nc1cccnc1Cl)c1ccc(F)cc1
    37*, 2, 53, 5, -19, 38
(15) O=C(NC(=S)Nc1ncccn1)c1ccc(F)cc1
    7, -5, 101*, 3, -8, 62*
(16) O=C(NC(=S)Nc1ccc(NC(=O)c2ccccc2)cc1)c1ccc(F)cc1
    2, ., 6, ., ., .
(17) O=C(NC(=S)NC12CC3CC(CC(C3)C1)C2)c1ccc(F)cc1
    -7, 7, ., -2, -16, 58*
(18) C[C@@H]1CN([C@@H](C)CO)S(=O)(=O)c2ccc(-c3cccnc3)cc2O[C@H]1CN(C)C
    ., 0[16.7 µM], ., 4, -22, 5
(19) Fc1ccc2nc(Nc3nc4cc5c(cc4s3)OCO5)sc2c1
    ., ., 54, ., ., .
(20) Fc1ccc2nc(Nc3nc4cc5c(cc4s3)OCCO5)sc2c1
    ., 1, 85*, -3, -7, .

Whole records as entered above:
C[C@@H]1CN([C@H](C)CO)C(=O)c2cc(C#Cc3ccccc3)cnc2O[C@H]1CN(C)C(=O)C1CC1 across the screens: Wnt act: .; miR-122 sensor: -1[16.7 µM]; MITF act: .; PglD DTNB: 1; Yeast UUG start: 5; esBAF inh: 3
Fc1ccc2nc(Nc3nc4cc5c(cc4s3)OCO5)sc2c1 across the screens: Wnt act: .; miR-122 sensor: .; MITF act: 54; PglD DTNB: .; Yeast UUG start: .; esBAF inh: .

The results go on.
Values run as follows: Wnt act, miR-122 sensor, MITF act, PglD DTNB, Yeast UUG start, esBAF inh
(21) CC(=O)Nc1nc2cc3c(cc2s1)OCO3
    23, ., ., 3, -24, 57*
(22) c1ccc2sc(Nc3nc4cc5c(cc4s3)OCO5)nc2c1
    ., 5, 66, -1, -22, 69*
(23) NNc1nc2ccc(F)cc2s1
    ., ., 7, ., ., .
(24) Fc1ccc2nc(Nc3ccccc3)sc2c1
    1, 0, ?, 0, -12, 92*
(25) CC(C)C(=O)Nc1nc2cc3c(cc2s1)OCCO3
    -1, -8, 8, ., ., -6
(26) O=C(COc1ccccc1)Nc1nc2cc3c(cc2s1)OCO3
    3, 1, 20, -2, -15, 13
(27) C[C@H]1CN([C@@H](C)CO)C(=O)c2cc(NC(=O)CCCN(C)C)ccc2O[C@@H]1CN(C)C(=O)Nc1ccccc1
    ., 4[16.7 µM], ., 4, -2, -3
(28) C[C@H]1CN([C@@H](C)CO)C(=O)c2cccc(NS(=O)(=O)c3cccs3)c2O[C@H]1CN(C)C(=O)Nc1ccc2c(c1)OCO2
    ., 1[16.7 µM], ., 0, 6, 3
(29) O=C(CCN1CCCCC1)NCC[C@H]1CC[C@@H](NC(=O)Cc2cccnc2)[C@@H](CO)O1
    ., 1[16.7 µM], ., 2, 1, 4
(30) O=C(NCCc1c[nH]c2ccccc12)C(=O)Nc1ccccc1
    24, -2, 58, -3, -7, 58*
(31) Cn1c(C(=O)NCCc2c[nH]c3ccccc23)cc2sccc21
    13, -9, 101*, 2, -5, 74*
(32) O=C(NCCc1c[nH]c2ccccc12)c1cc(Cl)c2c(c1)OCO2
    36*, -3, 113*, -7, -13, 47*
(33) COC(=O)[C@@H](Cc1c[nH]c2ccccc12)NC(=O)c1ccc2c(c1)OCO2
    38*, ., 67, 6, -44, 68*
(34) Cc1ccc(NC(=O)C(=O)NCCc2c[nH]c3ccccc23)cc1C
    -1, ., 0, ., ., .
(35) O=C(NCCc1c[nH]c2ccccc12)c1cc2sccc2n1Cc1ccccc1
    -5, -3, ., -6, -12, 1
